Experimental data as given in patent publication US10940188B2, “Compounds and methods for treatment and prevention of Flavivirus infection” (priority 2016, dated 2021).

Legend:
[1] = tested on: ZIKV-induced cell death in human astrocytes; assay: ATP cell viability assay for ZIKV-induced cell death, human astrocytes; type: cell-based; details: ZIKV-infected human astrocytes
[2] = tested on: ZIKV-induced cell death in SNB-19 cells; assay: ATP cell viability assay for ZIKV-induced cell death, SNB-19 cells; type: cell-based, human; details: ZIKV-infected SNB-19 cells
[3] = tested on: ZIKV-induced cell death in hNPCs; assay: ATP cell viability assay for ZIKV-induced cell death, hNPCs; type: cell-based, human; details: ZIKV-infected hNPCs

COc1cc2nc(N3CCN(C(=O)C4CCCO4)CC3)nc(N)c2cc1OC (stereo not drawn) [Terazosin hydrochloride]
0.0%: Cell viability (efficacy, %) Astrocyte [1] | Cell viability (efficacy, %) SNB-19 [2] | Cell viability (efficacy, %) NPCs [3]

Where a name gives a salt, the structure may show the parent alone.
